{"sequences": {"note": "The chains behind the UniProt entries cited, without tags or fusion partners. Residues count along the entry.", "UniProt P23458, 866-1154 limits assumed": "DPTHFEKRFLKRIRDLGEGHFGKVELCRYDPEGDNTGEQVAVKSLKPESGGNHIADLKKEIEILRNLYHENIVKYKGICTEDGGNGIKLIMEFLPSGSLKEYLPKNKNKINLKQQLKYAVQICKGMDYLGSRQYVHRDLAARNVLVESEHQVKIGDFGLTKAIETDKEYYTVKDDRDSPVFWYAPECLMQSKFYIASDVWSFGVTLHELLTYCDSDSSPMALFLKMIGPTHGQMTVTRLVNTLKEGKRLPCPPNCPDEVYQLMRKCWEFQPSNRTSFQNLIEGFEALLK"}, "source": "patent US12509463B2", "about": "“JAK inhibitor and preparation method therefor” (FELICAMED BIOTECHNOLOGY CO., LTD., priority 2019, dated 2025)", "data": [{"target": "JAK1 (Homo sapiens, UniProt P23458)", "assay": "JAK1 enzymology experiment (HTRF KinEASE-TK)", "format": "biochemical", "conditions": "read-out: Relative IC50; JAK1 enzyme activity, 10 uM ATP, 19.76 nM JAk1, 30 min at 25° C., HTRF 665/615", "units": {"IC50": "nM"}, "values": [{"molecule": "CN(c1ncnc2[nH]ccc12)[C@H]1CC[C@H](CS(C)(=N)=O)CC1", "note": "(stereo partly shown)", "IC50": "< 100"}, {"molecule": "CN(c1ncnc2[nH]ccc12)[C@H]1CC[C@@H](CS(C)(=N)=O)CC1", "note": "(stereo partly shown)", "IC50": "< 100"}]}, {"system": "Canine PBMC cells", "assay": "IL-2 and ConA induced proliferation of canine PBMC cells (flow cytometry, CD4+ population)", "conditions": "read-out: Cell IC50, CFSE stained, IL-2 and concanavalin A, 120 h, MFI of CD4+ population", "units": {"IC50": "nM"}, "values": [{"molecule": "CN(c1ncnc2[nH]ccc12)[C@H]1CC[C@@H](CS(C)(=N)=O)CC1", "note": "(stereo partly shown)", "IC50": "< 1000"}, {"molecule": "CN(c1ncnc2[nH]ccc12)[C@H]1CC[C@H](C[S@](=N)(=O)CC2CC2)CC1", "IC50": "> 5000"}, {"molecule": "CN=S(C)(=O)C[C@H]1CC[C@@H](N(C)c2ncnc3[nH]ccc23)CC1", "note": "(stereo partly shown)", "IC50": "< 1000"}, {"molecule": "CN(c1ncnc2[nH]ccc12)[C@H]1CC[C@H](C[S@@](=N)(=O)CC2CC2)CC1", "IC50": "> 5000"}, {"molecule": "CN=S(C)(=O)C[C@H]1CC[C@H](N(C)c2ncnc3[nH]ccc23)CC1", "note": "(stereo partly shown)", "IC50": "< 1000"}]}]}
